Results on one compound are retold here after BindingDB's records for doi:10.1016/j.bmcl.2015.12.052 (Janssen Research and Development, 2016).

The target of this assay is T1, P2X purinoceptor 7 (Rattus norvegicus, UniProt Q64663).
T1 sequence (Q64663 whole entry): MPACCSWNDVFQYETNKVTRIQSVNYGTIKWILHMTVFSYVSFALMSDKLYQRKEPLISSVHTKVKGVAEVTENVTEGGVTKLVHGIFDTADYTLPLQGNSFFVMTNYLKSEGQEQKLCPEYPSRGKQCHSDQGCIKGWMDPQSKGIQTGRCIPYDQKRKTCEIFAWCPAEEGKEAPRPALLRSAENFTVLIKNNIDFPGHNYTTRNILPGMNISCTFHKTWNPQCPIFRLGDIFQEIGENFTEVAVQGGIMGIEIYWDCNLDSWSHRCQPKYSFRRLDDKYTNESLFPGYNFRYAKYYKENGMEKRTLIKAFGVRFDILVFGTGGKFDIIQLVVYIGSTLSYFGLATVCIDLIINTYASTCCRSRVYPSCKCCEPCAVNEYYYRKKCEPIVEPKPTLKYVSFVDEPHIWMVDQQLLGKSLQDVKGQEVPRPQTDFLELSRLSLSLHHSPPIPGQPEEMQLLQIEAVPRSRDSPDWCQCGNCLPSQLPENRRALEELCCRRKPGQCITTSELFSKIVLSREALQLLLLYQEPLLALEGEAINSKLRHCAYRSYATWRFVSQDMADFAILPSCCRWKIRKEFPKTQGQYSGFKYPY
Nature of the assay: Antagonist activity at rat P2X7 receptor expressed in 1321N1 cells assessed as inhibition of Bz-ATP-induced Ca2+ flux after 30 mins by FLIPR assay. (In general: Calcium assays in cells follow changes in intracellular calcium, usually with a dye or a luminescent sensor.)

pIC50: −log10 of the molar value.

One may read the pIC50 as −log10 of the IC50, conventionally taken in molar units. Turning to `C[C@@H]1Cn2c(nnc2-c2cnccn2)C(=O)N1Cc1cccc(C(F)(F)F)c1Cl` [US10047092, 15], the pIC50 is less than 5.00.
